Reference: ChEMBL document CHEMBL3779868, “Tetrahydroprotoberberine alkaloids with dopamine and σ receptor affinity” (Bioorg Med Chem, 2016)

The chains behind the UniProt entries cited, without tags or fusion partners.
UniProt P14416, whole entry: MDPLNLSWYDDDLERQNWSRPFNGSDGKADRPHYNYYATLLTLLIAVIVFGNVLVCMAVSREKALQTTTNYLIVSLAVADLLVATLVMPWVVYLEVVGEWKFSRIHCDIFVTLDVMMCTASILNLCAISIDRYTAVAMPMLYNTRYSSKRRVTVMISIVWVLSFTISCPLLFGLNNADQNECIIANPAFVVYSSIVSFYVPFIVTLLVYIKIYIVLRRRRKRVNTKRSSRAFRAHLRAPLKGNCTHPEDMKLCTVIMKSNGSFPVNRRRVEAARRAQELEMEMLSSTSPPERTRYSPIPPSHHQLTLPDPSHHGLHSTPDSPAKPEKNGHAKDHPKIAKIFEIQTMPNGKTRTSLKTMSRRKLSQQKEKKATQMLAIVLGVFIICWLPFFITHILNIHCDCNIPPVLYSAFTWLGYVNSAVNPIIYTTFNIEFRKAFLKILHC
UniProt Q99720, whole entry: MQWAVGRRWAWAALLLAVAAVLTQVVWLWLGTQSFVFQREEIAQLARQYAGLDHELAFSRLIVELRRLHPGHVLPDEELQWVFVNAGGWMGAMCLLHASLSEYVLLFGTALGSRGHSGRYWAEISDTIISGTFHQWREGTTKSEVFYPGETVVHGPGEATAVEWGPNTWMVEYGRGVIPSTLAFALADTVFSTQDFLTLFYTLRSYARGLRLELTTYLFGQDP

What was measured:
[1] = organism: Homo sapiens; assay: Selectivity ratio of Ki for human dopamine D3 receptor to human dopamine D1 receptor
[2] = organism: Homo sapiens; assay: Selectivity ratio of Ki for human sigma1 receptor to human sigma2 receptor
[3] = organism: Homo sapiens; assay: Selectivity ratio of Ki for human dopamine D2 receptor to human dopamine D1 receptor
[4] = organism: Homo sapiens; assay: Selectivity ratio of Ki for human dopamine D2 receptor to human dopamine D3 receptor
[5] = target: D(2) dopamine receptor (Homo sapiens, UniProt P14416); assay: Displacement of [3H]N-methylspiperone from human dopamine D2 receptor by PDSP assay
[6] = target: Sigma non-opioid intracellular receptor 1 (Homo sapiens, UniProt Q99720); assay: Displacement of [3H](+)-pentazocine from human sigma1 receptor by PDSP assay

Structure (SMILES)	Ratio Ki [1]	Ratio Ki [2]	Ratio Ki [3]	Ratio Ki [4]	Ki [5] [nM]	Ki [6] [nM]
CCCOc1ccc2c(c1OC)CN1CCc3cc(OC)c(O)cc3C1C2 (centres undefined)	6.8	8.5	12.7	1.9		
COc1cc2c(cc1O)C1Cc3ccc(OC)c(OC)c3CN1CC2 (centres undefined)					102	106
COc1cc2c(cc1O)C1Cc3ccc(OCC4CC4)c(OC)c3CN1CC2 (centres undefined)	4.5	5	4.5			
